Earlier results on one substance are cited in patent US20120295320A1, “APPARATUS AND METHOD FOR TREATMENT OF MICROORGANISMS DURING PROPAGATION, CONDITIONING AND FERMENTATION USING STABILIZED CHLORINE DIOXIDE/SODIUM CHLORITE WITH HOPS ACID EXTRACTS” (RESONANT BIOSCIENCES, LLC, priority 2010, published 2012).

This data set relates to fermentation. Conditions: background statement, fermentation mixture.

In the case of Virginiamycin, the “concentration that will suppress fermentation” value was “over 2 mg/L”.
